These results are taken from US9334286B2, “Pharmacologically active compounds” (Cancer Research Technology Limited, priority 2012, dated 2016).

Amino acid sequences for entries named in this document (tags omitted). A change or cut given only in a name is not applied to a line headed by its entry.
UniProt P33981: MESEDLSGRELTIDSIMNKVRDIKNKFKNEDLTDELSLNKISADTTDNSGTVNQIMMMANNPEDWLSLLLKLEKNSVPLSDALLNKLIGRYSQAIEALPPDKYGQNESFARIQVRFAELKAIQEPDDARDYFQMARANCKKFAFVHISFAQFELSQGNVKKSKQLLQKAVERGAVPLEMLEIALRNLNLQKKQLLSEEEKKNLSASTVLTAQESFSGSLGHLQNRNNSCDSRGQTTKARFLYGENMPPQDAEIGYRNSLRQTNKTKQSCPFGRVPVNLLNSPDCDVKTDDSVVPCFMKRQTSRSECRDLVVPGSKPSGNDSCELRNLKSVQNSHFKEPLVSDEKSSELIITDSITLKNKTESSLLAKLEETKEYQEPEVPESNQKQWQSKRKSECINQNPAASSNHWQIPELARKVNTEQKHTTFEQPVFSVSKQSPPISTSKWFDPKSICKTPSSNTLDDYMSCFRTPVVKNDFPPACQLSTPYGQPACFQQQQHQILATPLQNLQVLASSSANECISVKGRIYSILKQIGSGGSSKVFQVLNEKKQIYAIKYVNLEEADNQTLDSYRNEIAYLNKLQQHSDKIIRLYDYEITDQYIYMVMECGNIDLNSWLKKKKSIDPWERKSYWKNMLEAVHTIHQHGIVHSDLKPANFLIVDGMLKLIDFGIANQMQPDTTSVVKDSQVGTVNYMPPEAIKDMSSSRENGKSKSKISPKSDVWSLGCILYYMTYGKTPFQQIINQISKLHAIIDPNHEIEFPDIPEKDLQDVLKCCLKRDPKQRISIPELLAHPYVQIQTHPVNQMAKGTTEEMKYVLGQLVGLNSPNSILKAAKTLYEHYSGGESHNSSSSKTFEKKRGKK

The target of the test is full length MPS1 (Homo sapiens (Human), UniProt P33981). Briefly: Measurement of inhibition of MPS1 kinase (Caliper EZ reader, fluorescent labelled peptide H236). Format: biochemical. The conditions noted are these: MPS1 IC50, full length MPS1 12.5 nM or 3 nM, peptide H236 5 μM, ATP 10 μM, 60 min at room temperature. On the procedure: The reaction was carried out for 60 min at room temperature and stopped by the addition of buffer (10 μl) containing 20 mM EDTA, 0.05% (v/v) Brij-35, in 0.1M HEPES-buffered saline (Free acid, Sigma, UK). The plate was read on a Caliper EZ reader II (Caliper Life Sciences).
The reader provides a Software package (‘Reviewer’) which converts the peak heights into % conversion by measuring both product and substrate peak and also allows selection of control well which represent 0% and 100% inhibition respectively. The % inhibition of the compounds is calculated relative to the means of selected control wells. IC50s are determined by testing the compounds at a range of concentrations from 0.25 nM-100 μM. The % inhibitions at each concentration are then fitted to a 4 parameter logistic fit: y=(a+((b−a)/(1+((c/x^d)))) where a=asym min, b=asym max, c=IC50 and d=hill coefficient

Broadly, the IC50 is the concentration at which inhibition is half-maximal. Low readings indicate greater potency in that assay, high ones weaker potency in that assay. `COc1cc(-c2cnc(C)n2CC2CCNCC2)ccc1Nc1cc2cc(-c3cnn(CC(C)(C)O)c3)ccc2cn1` [Example 110, 1-(4-(3-((2-Methoxy-4-(2-methyl-1-(piperidin-4-ylmethyl)-1H-imidazol-5-yl)phenyl)amino)-isoquinolin-6-yl)-1H-pyrazol-1-yl)-2-methylpropan-2-ol] displayed an IC50 of 5 nM. With `CNc1ccc(-c2ccc3cnc(Nc4ccc(-c5cnc(C)n5C)cc4OC)cc3c2)cn1` [Example 114, N-(4-(1,2-dimethyl-1H-imidazol-5-yl)-2-methoxyphenyl)-6-(6-(methylamino)pyridin-3-yl)isoquinolin-3-amine] the figure was 21 nM.
